Consider 1 molecule from PMC9307851 (Nature Communications, 2022).

This experiment has as its target T1, DNMT3B MTase domain ([…]), wild type (human).
T1 construct: DNMT3B (DNA methyltransferase 3B), human, MTase domain […]; Crystallised with SAH; also called DNMT3B methyltransferase domain; WT DNMT3B MTase domain; source: E. coli BL21 DE3 (RIL), purified (Ni-NTA, TEV cleavage, Heparin HP, Superdex 200); not shown: His6, N-terminal, cleaved; MBP, N-terminal, cleaved
Kind of experiment: SEC; DNMT3B protein mixed with separately purified tag-free DNMT3L (178-386), to compare assembly stability. Conditions: both partners purified. (In general: Size exclusion chromatography separates by hydrodynamic size, large species first.)

B1: DNMT3L (residues 178-386), made alone from a GST fusion (domain or fragment, human, UniProt Q9UJW3 178-386, looked up)
chain: MFETVPVWRRQPVRVLSLFEDIKKELTSLGFLESGSDPGQLKHVVDVTDTVRKDVEEWGPFDLVYGATPPLGHTCDRPPSWYLFQFHRLLQYARPKPGSPRPFFWMFVDNLVLNKEDLDVASRFLEMEPVTIPDVHGGSLQNAVRVWSNIPAIRSRHWALVSEEELSLLAQNKQSSKLAAKWPTKLVKNCFLPLREYFKYFSTELTSSL
notes: DNMT3L, human, GenBank BC002560, residues 178-386; also called DNMT3L protein; tag-free DNMT3L; source: E. coli BL21 DE3 (RIL), purified (Glutathione Sepharose, 3C PreScission cleavage, GSTrap FF, Superdex 200); not shown: GST, N-terminal, cleaved
Take B1: the binding result is on record as “binds”.
